Values of other authors in US20120134978A1, “Cross-Linking of Superoxide Dismutase Monomers” (Brandeis University, priority 2009, published 2012).

Test system: mice
Settings: cited from earlier work

Structure (SMILES): O=C(CBr)CBr
- toxicity (LD50): 3000 mg/kg
